Assay results as given in patent US7807654B2, “Compositions and methods for treatment of mitochondrial diseases” (Wellstat Therapeutics Corporation, priority 1998, dated 2010).

System: mice infused with sodium azide
Test: Subcutaneous azide infusion: mortality, body weight, TUNEL staining
Assay type: in vivo, C57/BL/6N mice
Conditions: 6% TAU or chow (data not shown)

## sodium azide
  mortality due to 60 μg/hr azide infusion: 60%
